PubChem BioAssay AID588413 (Sanford-Burnham Center for Chemical Genomics, 2011)
The entries are a selection whose mix differs from that of the whole data set. Some salts and complexes are drawn in separate pieces, as the source files them; their charges need not balance. Activity calls are given as the source filed them.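 How the source made its calls: active means inhibition above about 55% (limit read from the data); inactive means the rest.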

experiment: blockers of Gli reporter signaling – luciferase luminescence, Sufu-KO-LIGHT cells, uHTS, primary screen (AID 588413); settings: Sufu-KO-LIGHT fibroblasts, at 5 µM, stronger effect = higher value;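 further: 0% = DMSO-treated cells and 100% = wells with medium but no cells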

SMILES | inhibition
CCOC(=O)c1ccc(NP(C)(=O)Oc2ccc(Cl)cc2)cc1 (stereo not given) | inactive: 3.83%
CP(=O)(OC12CC3CC(CC(C3)C1)C2)OC12CC3CC(CC(C3)C1)C2 | inactive: -1.37%
Nc1ccc2c(ccc3cccnc32)n1.O=[N+]([O-])c1cc([N+](=O)[O-])c(O)c([N+](=O)[O-])c1 | inactive: 7.32%
CN(C)C(=O)c1c([N+](=O)[O-])cc([N+](=O)[O-])cc1[N+](=O)[O-] | inactive: 47.2%
CC(C)(C)c1ccc(OP(C)(=O)O)cc1 | inactive: 4.04%
COc1ccccc1OP(C)(=O)Nc1ccccc1Br (stereo not given) | inactive: 2.44%
CP(=O)(Nc1ccc(Cl)cc1)Oc1ccc(F)cc1 (stereo not given) | inactive: 0.55%
O=C(OCCCN1CCCC1)C(O)(c1ccccc1)C1CCCCC1 (stereo not given) | inactive: 13.3%
COc1ccccc1OP(C)(=O)Nc1c(C)n(C)n(-c2ccccc2)c1=O (stereo not given) | inactive: -0.18%
CCc1ccc(OP(C)(=O)Nc2cccnc2)cc1 (stereo not given) | inactive: 9.39%
CP(=O)(Oc1ccccc1)N1CCOC1=O (stereo not given) | inactive: -0.43%
COc1ccc(OP(C)(=O)Nc2ccc(Br)cc2)cc1 (stereo not given) | inactive: -1.44%
CCN(CC)CC(O)COC(=O)C(O)(c1ccccc1)C1CCCCC1 (stereo not given) | inactive: 8.1%
COc1ccccc1OP(C)(=O)Nc1ccc(C)cc1C (stereo not given) | inactive: 4.04%
CP(=O)(Nc1ccccn1)Oc1ccccc1 (stereo not given) | inactive: -6.86%
CCc1ccc(OP(C)(=O)O)cc1 | inactive: 26.4%
O=[N+]([O-])c1cc([N+](=O)[O-])c(Nc2ccccn2)c([N+](=O)[O-])c1 | inactive: 12.9%
Cc1c(NP(C)(=O)Oc2ccc(C(C)C)cc2)c(=O)n(-c2ccccc2)n1C (stereo not given) | inactive: -7.12%
CN(C)CCOC(=O)C(O)(c1ccccc1)C1CCCC1 (stereo not given) | inactive: 6.78%
COc1ccccc1OP(C)(=O)Nc1ccc(Br)cc1 (stereo not given) | inactive: 16.2%
CP(=O)(OCCOc1ccccc1)OCCOc1ccccc1 | inactive: 2.75%
CCCCCCCCCCCCCCCC1C[N+](C)(C)CCOP(C)(=O)O1 (stereo not given) | inactive: -2.04%
CP(=O)(Nc1ccc(Cl)cc1Cl)Oc1ccccc1 (stereo not given) | inactive: -5.84%

SMILES | inhibition
COc1ccccc1OP(C)(=O)Nc1ccc(C)c(C)c1 (stereo not given) | inactive: 6.37%
COc1ccc(OP(C)(=O)Nc2ccccc2Br)cc1 (stereo not given) | inactive: 4.28%
Cc1cc(C)cc(OP(C)(=O)Nc2cccc(C(F)(F)F)c2)c1 (stereo not given) | inactive: 7.73%
O=C1C(O)=C([N+](=O)[O-])C(=O)C(O)=C1[N+](=O)[O-] | inactive: 1.99%
CP(=O)(Nc1ccccc1)Oc1ccc(F)cc1 (stereo not given) | inactive: -8.51%
CCCCCOc1ccc(NP(C)(=O)Oc2ccc(Cl)cc2Cl)cc1 (stereo not given) | inactive: -8.02%
O=[N+]([O-])c1cc([N+](=O)[O-])c(OC2CCCCC2O)c([N+](=O)[O-])c1 (stereo not given) | inactive: 12.7%
Cc1c([N+](=O)[O-])cc([N+](=O)[O-])c(Br)c1[N+](=O)[O-] | inactive: -1.92%
CCN(CC)CCCOC(=O)C(O)(c1ccccc1)C1CCCCC1 (stereo not given) | inactive: 8.49%
CCOC(=O)c1ccc(NP(C)(=O)Oc2ccc(F)cc2)cc1 (stereo not given) | inactive: -1.06%
COc1ccc(OP(C)(=O)Nc2ccc(SC(F)(F)F)cc2)cc1 (stereo not given) | inactive: -2.31%
COc1ccc2c(c1O)-c1c(O)c(OC)cc3c1[C@H](C2)[N+](C)(C)CC3.O=[N+]([O-])c1cc([N+](=O)[O-])c([O-])c([N+](=O)[O-])c1[O-] | inactive: 0.77%
O=C(OC1CN2CCC1CC2)c1ccc([N+](=O)[O-])cc1 (stereo not given) | inactive: 2.43%
O=C(OCCN1CCN(CCOCc2ccccc2)CC1)C(O)(c1ccccc1)c1ccccc1 | inactive: 7.98%
CP(=O)(Nc1ccccc1F)Oc1ccccc1 (stereo not given) | inactive: -8.3%
CC(C)c1ccc(OP(C)(=O)Nc2ccc(SC(F)(F)F)cc2)cc1 (stereo not given) | inactive: -3.43%
Cc1ccccc1NP(C)(=O)Nc1ccccc1C | inactive: -4.92%
CP(=O)(Nc1ccc2c(c1)OCCO2)Oc1ccccc1 (stereo not given) | inactive: -2.36%
CCOP(C)(=S)SCC(=O)NC(C)(CC)C(=O)O (stereo not given) | inactive: -19.8%
CP(=O)(Nc1ccc(SC(F)(F)F)cc1)Oc1ccc(F)cc1 (stereo not given) | inactive: 46%
Cc1c(C(c2ccc3c(c2)OCO3)c2c(C)n(C)n(-c3ccccc3)c2=O)c(=O)n(-c2ccccc2)n1C.O=[N+]([O-])c1cc([N+](=O)[O-])c(O)c([N+](=O)[O-])c1 | inactive: -23.8%
O=[N+]([O-])c1ccc(OP2(=O)COCCO2)cc1 (stereo not given) | inactive: -2.35%
Cc1cc(-c2cccc3ccccc23)c(C)cn1.O=[N+]([O-])c1cc([N+](=O)[O-])c(O)c([N+](=O)[O-])c1 | inactive: 1.49%

SMILES | inhibition
O=[N+]([O-])c1cc([N+](=O)[O-])c(NCC2CCS(=O)(=O)C2)c([N+](=O)[O-])c1 (stereo not given) | inactive: 3.08%
CN(C)CCOC(=O)C(O)(c1ccccc1)C1CCCCC1 (stereo not given) | inactive: -48.9%
COc1ccc(NP(C)(=O)Oc2ccccc2OC)cc1 (stereo not given) | inactive: 1.22%
COc1ccc(OP(C)(=O)Nc2cccc(Br)c2)cc1 (stereo not given) | inactive: 6.28%
CP(=O)(Nc1ccc(SC(F)(F)F)cc1)Oc1ccccc1 (stereo not given) | inactive: 1.77%
CCCOc1ccc(NP(C)(=O)Oc2ccc(Cl)cc2)cc1 (stereo not given) | inactive: 2.91%
CN1CCCCC1COC(=O)C1(O)c2ccccc2CCc2ccccc21 (stereo not given) | inactive: 6.63%
COc1ccccc1OP(C)(=O)Nc1c(C)cccc1C (stereo not given) | inactive: 12.2%
CCOC(=O)C(CC)C1=NC(C)(C)Cc2ccccc21.O=[N+]([O-])c1cc([N+](=O)[O-])c(O)c([N+](=O)[O-])c1 (stereo not given) | inactive: -6.77%
O=[N+]([O-])c1cc([N+](=O)[O-])c(Nc2nnnn2CCO)c([N+](=O)[O-])c1 | inactive: -4.79%
CC1=C2N=C(C=C3N=C(C(C)=C4[N-][C@@](C)([C@@H]5N=C1[C@](C)(CCC(=O)NC[C@@H](C)OP(=O)([O-])O[C@H]1[C@@H](O)[C@@H](n6cnc7cc(C)c(C)cc76)O[C@@H]1CO)[C@H]5CC(N)=O)[C@@](C)(CC(N)=O)[C@@H]4CCC(N)=O)[C@@](C)(CC(N)=O)[C@@H]3CCC(N)=O)C(C)(C)[C@@H]2CCC(N)=O.[C-]#N.[Co+3] | inactive: 50.2%
Cc1nc2ccc3ccccc3c2s1.O=[N+]([O-])c1cc([N+](=O)[O-])c(O)c([N+](=O)[O-])c1 | inactive: -0.82%
O=[N+]([O-])c1cc([N+](=O)[O-])c(-c2cnn(-c3ccccc3)c2)c([N+](=O)[O-])c1 | inactive: 13.3%
O=[N+]([O-])c1cc([N+](=O)[O-])c(-n2nnc3ccccc32)c([N+](=O)[O-])c1 | inactive: 33.8%
Cc1ccc(C)c(NP(C)(=O)Oc2ccccc2)c1 (stereo not given) | inactive: -3.13%
CP(=O)(Nc1cccc(Br)c1)Oc1ccccc1 (stereo not given) | inactive: 0.23%
Cc1cc(C)cc(OP(C)(=O)Nc2ccccn2)c1 (stereo not given) | inactive: -1.21%
CCOC(=O)c1ccc(NP(C)(=O)Oc2cc(C)cc(C)c2)cc1 (stereo not given) | inactive: 1.47%
Cc1cc(C)cc(OP(C)(=O)Nc2ccc(C)cc2C)c1 (stereo not given) | inactive: 0.71%
COc1ccccc1OP(C)(=O)Nc1cccc(Br)c1 (stereo not given) | inactive: 6.6%
CC1=NCCc2c1[nH]c1ccccc21.O=[N+]([O-])c1cc([N+](=O)[O-])c(O)c([N+](=O)[O-])c1 | inactive: -5.63%
O=C(O)c1cccc(Nc2c([N+](=O)[O-])cc([N+](=O)[O-])cc2[N+](=O)[O-])c1 | inactive: -0.2%
COc1ccc(OP(C)(=O)Nc2cccc(F)c2)cc1 (stereo not given) | inactive: 19.5%

SMILES | inhibition
COc1ccccc1OP(C)(=O)Nc1cc(Cl)ccc1C (stereo not given) | inactive: 7.44%
Cc1ccc(NP(C)(=O)Oc2ccccc2)c(C)c1 (stereo not given) | inactive: -17.7%
COc1ccccc1OP(C)(=O)Nc1ccc(C)cc1 (stereo not given) | inactive: 6.75%
CCOC(=O)c1ccc(NP(C)(=O)Oc2ccccc2)cc1 (stereo not given) | inactive: -0.03%
O=[N+]([O-])c1ccc2c(c1)C=Nc1ccccc1O2 | inactive: 42.6%
Cc1cccc(C)c1OP(C)(N)=O (stereo not given) | inactive: -10.7%
O=[N+]([O-])c1cc([N+](=O)[O-])c(Nc2cccnc2)c([N+](=O)[O-])c1 | inactive: 27.5%
CCN(CC)CCCOC(=O)C(O)(c1ccccc1)c1ccccc1 | inactive: -7.14%
CP(=O)(Nc1ccccn1)Oc1ccc(Cl)cc1 (stereo not given) | inactive: -0.69%
O=[N+]([O-])c1cc([N+](=O)[O-])c(O)c([N+](=O)[O-])c1.c1ccc(Oc2ccncc2)cc1 | inactive: -6%
CCOC(=O)c1ccc(NP(C)(=O)Oc2ccc(OC)cc2)cc1 (stereo not given) | inactive: -3.29%
CCOP(C)(=S)SCC(=O)NC(C)C(=O)O (stereo not given) | inactive: 3.22%
Cc1cc(C)cc(OP(C)(=O)Nc2ccc(SC(F)(F)F)cc2)c1 (stereo not given) | inactive: 4.79%
CCc1ccc(OP(C)(=O)N2CCN(c3ccc([N+](=O)[O-])cc3)CC2)cc1 (stereo not given) | inactive: 8.28%
CP(=O)(NC(=O)Nc1ccccc1)Oc1ccccc1 (stereo not given) | inactive: -5.01%
CP(=O)(Oc1ccccc1)OC(c1ccccc1)C(F)(F)F (stereo not given) | inactive: 13.5%
CP(=O)(Nc1ccc(SC(F)(F)F)cc1)Oc1ccc(Cl)cc1 (stereo not given) | inactive: 1.48%
Cc1cccc(C)c1OP(C)(=O)Nc1ccc(SC(F)(F)F)cc1 (stereo not given) | inactive: 4.55%
CP(=O)(Nc1ccccc1Br)Oc1ccccc1 (stereo not given) | inactive: -1.95%
COc1ccccc1OP(C)(=O)Nc1ccccc1 (stereo not given) | inactive: 1.22%
CP(=S)(Nn1cnnc1)Oc1ccccc1 (stereo not given) | inactive: -20.6%
